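Values below derive from 48-hour exposures of cells grown in 96-well plates, with endpoints linearly interpolated between the two concentrations bracketing the appropriate inhibition level. GI50 is the concentration that inhibits growth by half. TGI marks complete inhibition of growth.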
What was measured:
Assay in all cases: DTP human tumour cell line panel, 48 h; in the data active = GI50 below about 0.43 µM; inactive = the rest
A549 NSCLC = tested on: A549 NSCLC
NCI-H322M lung = tested on: NCI-H322M lung
SW-620 colon = tested on: SW-620 colon
MALME-3M melanoma = tested on: MALME-3M melanoma
SN12C renal = tested on: SN12C renal
NCI-H23 lung = tested on: NCI-H23 lung
M14 melanoma = tested on: M14 melanoma
HCT-15 colon = tested on: HCT-15 colon
HOP-92 NSCLC = tested on: HOP-92 NSCLC
SNB-75 CNS = tested on: SNB-75 CNS
MOLT-4 leukemia = tested on: MOLT-4 leukemia
OVCAR-3 ovarian = tested on: OVCAR-3 ovarian
SK-MEL-2 melanoma = tested on: SK-MEL-2 melanoma
TK-10 renal = tested on: TK-10 renal
K-562 leukemia = tested on: K-562 leukemia
LXFL 529 NSCLC = tested on: LXFL 529 NSCLC
NCI-H460 lung = tested on: NCI-H460 lung
DMS 114 small cell lung = tested on: DMS 114 small cell lung
UACC-62 melanoma = tested on: UACC-62 melanoma
OVCAR-4 ovarian = tested on: OVCAR-4 ovarian
XF 498 CNS = tested on: XF 498 CNS
COLO 205 colon = tested on: COLO 205 colon
IGROV1 ovarian = tested on: IGROV1 ovarian
UACC-257 melanoma = tested on: UACC-257 melanoma
786-0 renal = tested on: 786-0 renal
SF-295 CNS = tested on: SF-295 CNS
RPMI-8226 leukemia = tested on: RPMI-8226 leukemia
HOP-18 NSCLC = tested on: HOP-18 NSCLC
KM20L2 colon = tested on: KM20L2 colon
SK-MEL-28 melanoma = tested on: SK-MEL-28 melanoma
OVCAR-5 ovarian = tested on: OVCAR-5 ovarian
CCRF-CEM leukemia = tested on: CCRF-CEM leukemia
OVCAR-8 ovarian = tested on: OVCAR-8 ovarian
M19-MEL melanoma = tested on: M19-MEL melanoma
ACHN renal = tested on: ACHN renal
SNB-19 CNS = tested on: SNB-19 CNS
SNB-78 CNS = tested on: SNB-78 CNS
SK-OV-3 ovarian = tested on: SK-OV-3 ovarian
CAKI-1 renal = tested on: CAKI-1 renal
DLD-1 colon = tested on: DLD-1 colon
EKVX NSCLC = tested on: EKVX NSCLC
A498 renal = tested on: A498 renal
HL-60(TB) leukemia = tested on: HL-60(TB) leukemia
KM12 colon = tested on: KM12 colon
RXF 393 renal = tested on: RXF 393 renal
SF-539 CNS = tested on: SF-539 CNS
HOP-62 NSCLC = tested on: HOP-62 NSCLC
HCT-116 colon = tested on: HCT-116 colon
SF-268 CNS = tested on: SF-268 CNS
SK-MEL-5 melanoma = tested on: SK-MEL-5 melanoma
HCC-2998 colon = tested on: HCC-2998 colon
U251 CNS = tested on: U251 CNS
DMS 273 small cell lung = tested on: DMS 273 small cell lung
HT29 colon = tested on: HT29 colon
MDA-MB-435 = tested on: MDA-MB-435
NCI/ADR-RES ovarian = tested on: NCI/ADR-RES ovarian
HS 578T breast = tested on: HS 578T breast
MCF7 breast = tested on: MCF7 breast
MDA-MB-231 breast = tested on: MDA-MB-231 breast
T-47D breast = tested on: T-47D breast
NCI-H522 lung = tested on: NCI-H522 lung
MDA-N = tested on: MDA-N
NCI-H226 lung = tested on: NCI-H226 lung
DU-145 prostate = tested on: DU-145 prostate
SR leukemia = tested on: SR leukemia
UO-31 renal = tested on: UO-31 renal
PC-3 prostate = tested on: PC-3 prostate
LOX IMVI melanoma = tested on: LOX IMVI melanoma

O=[N+]([O-])C12C3C4C1C1CC4C4([N+](=O)[O-])C3CC2C14[N+](=O)[O-] (configuration not stated)
inactive: GI50 (A549 NSCLC) > 100 µM | GI50 (NCI-H322M lung) > 100 µM | GI50 (SW-620 colon) > 100 µM | GI50 (MALME-3M melanoma) > 100 µM | GI50 (SN12C renal) > 100 µM | GI50 (NCI-H23 lung) > 100 µM | GI50 (M14 melanoma) > 100 µM | GI50 (HCT-15 colon) > 100 µM | GI50 (HOP-92 NSCLC) > 100 µM | GI50 (SNB-75 CNS) > 100 µM | GI50 (MOLT-4 leukemia) > 100 µM | GI50 (OVCAR-3 ovarian) > 100 µM | GI50 (SK-MEL-2 melanoma) > 100 µM | GI50 (TK-10 renal) > 100 µM | GI50 (K-562 leukemia) > 100 µM | GI50 (LXFL 529 NSCLC) > 100 µM | GI50 (NCI-H460 lung) > 100 µM | GI50 (DMS 114 small cell lung) > 100 µM | GI50 (UACC-62 melanoma) > 100 µM | GI50 (OVCAR-4 ovarian) > 100 µM | GI50 (XF 498 CNS) > 100 µM | GI50 (COLO 205 colon) > 100 µM | GI50 (IGROV1 ovarian) > 100 µM | GI50 (UACC-257 melanoma) > 100 µM | GI50 (786-0 renal) > 100 µM | GI50 (SF-295 CNS) > 100 µM | GI50 (RPMI-8226 leukemia) > 100 µM | GI50 (HOP-18 NSCLC) > 100 µM | GI50 (KM20L2 colon) > 100 µM | GI50 (SK-MEL-28 melanoma) > 100 µM | GI50 (OVCAR-5 ovarian) > 100 µM | GI50 (CCRF-CEM leukemia) > 100 µM | GI50 (OVCAR-8 ovarian) > 100 µM | GI50 (M19-MEL melanoma) > 100 µM | GI50 (ACHN renal) > 100 µM | GI50 (SNB-19 CNS) > 100 µM | GI50 (SNB-78 CNS) > 100 µM | GI50 (SK-OV-3 ovarian) > 100 µM | GI50 (CAKI-1 renal) > 100 µM | GI50 (DLD-1 colon) > 100 µM | GI50 (EKVX NSCLC) > 100 µM | GI50 (A498 renal) > 100 µM | GI50 (HL-60(TB) leukemia) > 100 µM | GI50 (KM12 colon) > 100 µM | GI50 (RXF 393 renal) > 100 µM | GI50 (SF-539 CNS) > 100 µM | GI50 (HOP-62 NSCLC) > 100 µM | GI50 (HCT-116 colon) > 100 µM | GI50 (SF-268 CNS) > 100 µM | GI50 (SK-MEL-5 melanoma) > 100 µM | GI50 (HCC-2998 colon) > 100 µM | GI50 (U251 CNS) > 100 µM | GI50 (DMS 273 small cell lung) > 100 µM | GI50 (HT29 colon) > 100 µM
> 100 µM: TGI (A549 NSCLC) | TGI (NCI-H322M lung) | TGI (SW-620 colon) | TGI (MALME-3M melanoma) | TGI (SN12C renal) | TGI (NCI-H23 lung) | TGI (M14 melanoma) | TGI (HCT-15 colon) | TGI (HOP-92 NSCLC) | TGI (SNB-75 CNS) | TGI (MOLT-4 leukemia) | TGI (OVCAR-3 ovarian) | TGI (SK-MEL-2 melanoma) | TGI (TK-10 renal) | TGI (K-562 leukemia) | TGI (LXFL 529 NSCLC) | TGI (NCI-H460 lung) | TGI (DMS 114 small cell lung) | TGI (UACC-62 melanoma) | TGI (OVCAR-4 ovarian) | TGI (XF 498 CNS) | TGI (COLO 205 colon) | TGI (IGROV1 ovarian) | TGI (UACC-257 melanoma) | TGI (786-0 renal) | TGI (SF-295 CNS) | TGI (RPMI-8226 leukemia) | TGI (HOP-18 NSCLC) | TGI (KM20L2 colon) | TGI (SK-MEL-28 melanoma) | TGI (OVCAR-5 ovarian) | TGI (CCRF-CEM leukemia) | TGI (OVCAR-8 ovarian) | TGI (M19-MEL melanoma) | TGI (ACHN renal) | TGI (SNB-19 CNS) | TGI (SNB-78 CNS) | TGI (SK-OV-3 ovarian) | TGI (CAKI-1 renal) | TGI (DLD-1 colon) | TGI (EKVX NSCLC) | TGI (A498 renal) | TGI (HL-60(TB) leukemia) | TGI (KM12 colon) | TGI (RXF 393 renal) | TGI (SF-539 CNS) | TGI (HOP-62 NSCLC) | TGI (HCT-116 colon) | TGI (SF-268 CNS) | TGI (SK-MEL-5 melanoma) | TGI (HCC-2998 colon) | TGI (U251 CNS) | TGI (DMS 273 small cell lung) | TGI (HT29 colon)

COc1ccc2c3c1OC1[C@@]4(OC)CCC5(CC4C(C)=O)[C@@H](C2)N(C)CC[C@]315 (some centres not stated)
> 100 µM: TGI (A549 NSCLC) | TGI (NCI-H322M lung) | TGI (SW-620 colon) | TGI (MALME-3M melanoma) | TGI (SN12C renal) | TGI (MDA-MB-435) | TGI (NCI-H23 lung) | TGI (M14 melanoma) | TGI (NCI/ADR-RES ovarian) | TGI (HCT-15 colon) | TGI (HOP-92 NSCLC) | TGI (SNB-75 CNS) | TGI (HS 578T breast) | TGI (MOLT-4 leukemia) | TGI (MCF7 breast) | TGI (MDA-MB-231 breast) | TGI (T-47D breast) | TGI (OVCAR-3 ovarian) | TGI (SK-MEL-2 melanoma) | TGI (TK-10 renal) | TGI (NCI-H522 lung) | TGI (K-562 leukemia) | TGI (NCI-H460 lung) | TGI (UACC-62 melanoma) | TGI (OVCAR-4 ovarian) | TGI (COLO 205 colon) | TGI (IGROV1 ovarian) | TGI (UACC-257 melanoma) | TGI (786-0 renal) | TGI (SF-295 CNS) | TGI (RPMI-8226 leukemia) | TGI (SK-MEL-28 melanoma) | TGI (OVCAR-5 ovarian) | TGI (MDA-N) | TGI (CCRF-CEM leukemia) | TGI (OVCAR-8 ovarian) | TGI (ACHN renal) | TGI (NCI-H226 lung) | TGI (SNB-19 CNS) | TGI (SK-OV-3 ovarian) | TGI (DU-145 prostate) | TGI (CAKI-1 renal) | TGI (EKVX NSCLC) | TGI (A498 renal) | TGI (HL-60(TB) leukemia) | TGI (KM12 colon) | TGI (RXF 393 renal) | TGI (SF-539 CNS) | TGI (SR leukemia) | TGI (HOP-62 NSCLC) | TGI (HCT-116 colon) | TGI (SF-268 CNS) | TGI (SK-MEL-5 melanoma) | TGI (HCC-2998 colon) | TGI (UO-31 renal) | TGI (PC-3 prostate) | TGI (U251 CNS) | TGI (LOX IMVI melanoma) | TGI (HT29 colon)
